One experiment concerns the target T1, CRF2R (Homo sapiens, UniProt Q13324).
T1 sequence (Q13324 1-411): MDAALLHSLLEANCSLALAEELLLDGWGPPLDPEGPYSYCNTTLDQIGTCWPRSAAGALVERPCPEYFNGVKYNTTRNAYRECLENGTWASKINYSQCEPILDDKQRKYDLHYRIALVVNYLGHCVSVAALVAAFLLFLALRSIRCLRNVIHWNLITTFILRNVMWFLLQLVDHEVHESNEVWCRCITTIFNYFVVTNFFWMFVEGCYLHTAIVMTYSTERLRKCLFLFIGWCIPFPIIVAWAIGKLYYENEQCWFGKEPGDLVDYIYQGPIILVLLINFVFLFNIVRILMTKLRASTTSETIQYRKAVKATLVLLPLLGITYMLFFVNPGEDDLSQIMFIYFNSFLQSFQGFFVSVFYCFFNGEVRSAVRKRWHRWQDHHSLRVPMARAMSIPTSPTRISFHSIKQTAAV
Briefly: CRF2R agonist activation (EC50 / Emax), called comparative CRF binding. The format is cell-based. The note with it: for Emax: read-out: CRF2R Emax. The method, boiled down:
(§1)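 Cells expressing full-length human CRF1R or CRF2R were exposed to peptide or vehicle control, and receptor activation was gauged as cAMP induction. cAMP was measured in cell lysates or via a cAMP-responsive element driving a reporter gene such as luciferase, CAT, GFP or alkaline phosphatase.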

For the next experiment, the target named is T2, CRF1R (Homo sapiens, UniProt P34998).
T2 sequence (P34998 24-415): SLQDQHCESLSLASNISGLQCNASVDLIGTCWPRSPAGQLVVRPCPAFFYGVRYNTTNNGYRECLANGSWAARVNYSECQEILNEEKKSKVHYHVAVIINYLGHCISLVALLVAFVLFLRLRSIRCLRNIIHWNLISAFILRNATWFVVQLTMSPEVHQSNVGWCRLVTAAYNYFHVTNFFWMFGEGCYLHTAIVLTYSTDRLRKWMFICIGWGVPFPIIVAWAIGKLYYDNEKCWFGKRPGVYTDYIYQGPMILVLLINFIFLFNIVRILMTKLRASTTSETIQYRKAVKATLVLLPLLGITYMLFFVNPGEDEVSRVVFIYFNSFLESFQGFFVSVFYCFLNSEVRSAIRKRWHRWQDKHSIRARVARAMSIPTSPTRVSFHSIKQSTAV
Briefly: CRF1R agonist activation (EC50 / Emax), called comparative CRF binding. It counts as cell-based. The note with it: for EC50: CRF1R EC50; for Emax: read-out: CRF1R Emax. In short, it runs like this:
as §1

Bounds are passed on as bounds.

As to `CC[C@H](C)[C@H](NC(=O)[C@@H](NC(=O)[C@H](CC(=O)O)NC(=O)[C@H](CC(C)C)NC(=O)[C@H](CC(C)C)NC(=O)[C@H](CC(C)C)NC(=O)[C@H](C)NC(=O)[C@H](CC(N)=O)NC(=O)[C@H](CC(N)=O)NC(=O)[C@H](C)NC(=O)[C@H](C)NC(=O)[C@H](CCC(N)=O)NC(=O)[C@H](CCC(N)=O)NC(=O)[C@H](CCCCN)NC(=O)[C@H](CCC(=O)O)NC(=O)[C@H](CCCCN)NC(=O)[C@H](CCC(=O)O)NC(=O)[C@H](CCC(N)=O)NC(=O)[C@H](CCCCN)NC(=O)[C@H](CCC(=O)O)NC(=O)[C@@H](NC(=O)[C@H](CCC(=O)O)NC(=O)[C@@H](NC(=O)[C@H](CCSC)NC(=O)[C@H](CCCCN)NC(=O)[C@H](CCCNC(=N)N)NC(=O)[C@H](CC(C)C)NC(=O)[C@H](CC(C)C)NC(=O)[C@H](Cc1ccccc1)NC(=O)[C@H](Cc1ccccc1)NC(=O)[C@@H]1CCCN1C(=O)[C@H](CC(C)C)NC(=O)[C@H](CC(=O)O)NC(=O)[C@@H](NC(=O)[C@H](CO)NC(=O)[C@@H](NC(=O)[C@@H]1CCCN1C(=O)[C@@H]1CCCN1C(=O)CNC(=O)[C@@H]1CCC(=O)N1)[C@@H](C)CC)[C@@H](C)CC)[C@@H](C)CC)[C@@H](C)CC)[C@@H](C)O)C(N)=O` [compound 318], on CRF2R, the EC50 worked out at 9.95 nM and the Emax turned out to be 95.4%. Also, at CRF1R, the EC50 amounted to 134 nM and the maximal response (Emax) was 92.8%.
On the same counts, the results for `CC[C@H](C)[C@H](NC(=O)[C@@H](NC(=O)[C@H](CC(=O)O)NC(=O)[C@H](CC(C)C)NC(=O)[C@H](CC(C)C)NC(=O)[C@H](CC(C)C)NC(=O)[C@H](C)NC(=O)[C@H](CC(N)=O)NC(=O)[C@H](CC(N)=O)NC(=O)[C@H](C)NC(=O)[C@H](C)NC(=O)[C@H](CCC(N)=O)NC(=O)[C@H](CCC(N)=O)NC(=O)[C@H](CCCCN)NC(=O)[C@H](CCC(=O)O)NC(=O)[C@H](CCCCN)NC(=O)[C@H](CCC(=O)O)NC(=O)[C@H](CCC(N)=O)NC(=O)[C@H](CCCCN)NC(=O)[C@H](CCC(=O)O)NC(=O)[C@@H](NC(=O)[C@H](CCC(=O)O)NC(=O)[C@@H](NC(=O)[C@H](CCSC)NC(=O)[C@H](CCCCN)NC(=O)[C@H](CCCNC(=N)N)NC(=O)[C@H](CC(C)C)NC(=O)[C@H](CC(C)C)NC(=O)[C@H](Cc1ccc(O)cc1)NC(=O)[C@@H](NC(=O)[C@@H]1CCCN1C(=O)[C@H](CC(C)C)NC(=O)[C@H](CC(=O)O)NC(=O)[C@@H](NC(=O)[C@H](CO)NC(=O)[C@@H](NC(=O)[C@@H]1CCCN1C(=O)[C@@H]1CCCN1C(=O)CNC(=O)[C@@H]1CCC(=O)N1)[C@@H](C)CC)[C@@H](C)CC)[C@@H](C)O)[C@@H](C)CC)[C@@H](C)CC)[C@@H](C)O)C(N)=O` [compound 232] are 45.3 nM, 100%, at least 1000 nM and 7%.
In the case of `CC[C@H](C)[C@H](NC(=O)[C@H](CCCNC(=N)N)NC(=O)[C@H](C)NC(=O)[C@H](CC(N)=O)NC(=O)[C@@H](NC(=O)[C@@H](NC(=O)[C@H](C)NC(=O)[C@H](CCC(N)=O)NC(=O)[C@H](CCC(N)=O)NC(=O)[C@H](CCCCN)NC(=O)[C@H](CCC(=O)O)NC(=O)[C@H](CCCCN)NC(=O)[C@H](CCC(=O)O)NC(=O)[C@H](CCC(N)=O)NC(=O)[C@H](CCCCN)NC(=O)[C@H](CCC(=O)O)NC(=O)[C@@H](NC(=O)[C@H](CCC(=O)O)NC(=O)[C@@H](NC(=O)[C@H](CC(C)C)NC(=O)[C@@H](NC(=O)[C@H](CCCNC(=N)N)NC(=O)[C@H](CC(C)C)NC(=O)[C@H](CC(C)C)NC(=O)[C@H](Cc1ccc(O)cc1)NC(=O)[C@@H](NC(=O)[C@@H]1CCCN1C(=O)[C@@H](NC(=O)[C@H](CC(=O)O)NC(=O)[C@@H](NC(=O)[C@H](CO)NC(=O)[C@@H](NC(=O)[C@@H]1CCCN1C(=O)[C@@H]1CCCN1C(=O)CNC(=O)[C@@H]1CCC(=O)N1)[C@@H](C)CC)[C@@H](C)CC)C(C)C)[C@@H](C)O)[C@@H](C)CC)[C@@H](C)CC)[C@@H](C)CC)[C@@H](C)O)[C@@H](C)O)C(=O)N[C@@H](CC(C)C)C(=O)N[C@@H](C)C(=O)N[C@@H](CCCNC(=N)N)C(=O)N[C@H](C(N)=O)C(C)C` [compound 169], the Emax on CRF2R turned out to be 93%; at CRF1R, 26%.
The corresponding values for `CC[C@H](C)[C@H](NC(=O)[C@@H](NC(=O)[C@H](CC(=O)O)NC(=O)[C@H](CC(C)C)NC(=O)[C@H](CC(C)C)NC(=O)[C@H](CC(C)C)NC(=O)[C@H](CCCNC(=N)N)NC(=O)[C@H](CC(N)=O)NC(=O)[C@H](CC(N)=O)NC(=O)[C@H](C)NC(=O)[C@H](C)NC(=O)[C@H](CCC(N)=O)NC(=O)[C@H](CCC(N)=O)NC(=O)[C@H](CCCCN)NC(=O)[C@H](CCC(=O)O)NC(=O)[C@H](CCCCN)NC(=O)[C@H](CCC(=O)O)NC(=O)[C@H](CCC(N)=O)NC(=O)[C@H](CCCCN)NC(=O)[C@H](CCC(=O)O)NC(=O)[C@@H](NC(=O)[C@H](CCC(=O)O)NC(=O)[C@@H](NC(=O)[C@@H](NC(=O)[C@H](CCCCN)NC(=O)[C@H](CCCNC(=N)N)NC(=O)[C@H](CC(C)C)NC(=O)[C@H](CC(C)C)NC(=O)[C@H](Cc1c[nH]c2ccccc12)NC(=O)[C@@H](NC(=O)[C@@H]1CCCN1C(=O)[C@H](CC(C)C)NC(=O)[C@H](CC(=O)O)NC(=O)[C@@H](NC(=O)[C@H](CO)NC(=O)[C@@H](NC(=O)[C@@H]1CCCN1C(=O)[C@@H]1CCCN1C(=O)CNC(=O)[C@@H]1CCC(=O)N1)[C@@H](C)CC)[C@@H](C)CC)[C@@H](C)O)C(C)C)[C@@H](C)CC)[C@@H](C)CC)[C@@H](C)O)C(N)=O` [compound 284] are 100% and 27.7%.
On the same counts, the results for `CC[C@H](C)[C@H](NC(=O)[C@@H](NC(=O)[C@H](CC(=O)O)NC(=O)[C@H](CC(C)C)NC(=O)[C@H](CC(C)C)NC(=O)[C@H](CC(C)C)NC(=O)[C@H](CCCNC(=N)N)NC(=O)[C@H](CC(N)=O)NC(=O)[C@H](CC(N)=O)NC(=O)[C@H](C)NC(=O)[C@H](C)NC(=O)[C@H](CCC(N)=O)NC(=O)[C@H](CCC(N)=O)NC(=O)[C@H](CCCCN)NC(=O)[C@H](CCC(=O)O)NC(=O)[C@H](CCCCN)NC(=O)[C@H](CCC(=O)O)NC(=O)[C@H](CCC(N)=O)NC(=O)[C@H](CCCCN)NC(=O)[C@H](CCC(=O)O)NC(=O)[C@@H](NC(=O)[C@H](CCC(=O)O)NC(=O)[C@@H](NC(=O)[C@H](CCSC)NC(=O)[C@H](CCCCN)NC(=O)[C@H](CCCNC(=N)N)NC(=O)[C@H](CC(C)C)NC(=O)[C@H](CC(C)C)NC(=O)[C@H](Cc1c[nH]cn1)NC(=O)[C@H](Cc1ccc(O)cc1)NC(=O)[C@@H]1CCCN1C(=O)[C@H](CC(C)C)NC(=O)[C@H](CC(=O)O)NC(=O)[C@@H](NC(=O)[C@H](CO)NC(=O)[C@@H](NC(=O)[C@@H]1CCCN1C(=O)[C@@H]1CCCN1C(=O)CNC(=O)[C@@H]1CCC(=O)N1)[C@@H](C)CC)[C@@H](C)CC)[C@@H](C)CC)[C@@H](C)CC)[C@@H](C)O)C(N)=O` [compound 208] are 88% and 81%.
On the same counts, the results for `CC[C@H](C)[C@H](NC(=O)[C@@H](NC(=O)[C@H](CC(=O)O)NC(=O)[C@H](CC(C)C)NC(=O)[C@H](CC(C)C)NC(=O)[C@H](CC(C)C)NC(=O)[C@H](CCCNC(=N)N)NC(=O)[C@H](CC(N)=O)NC(=O)[C@H](CC(N)=O)NC(=O)[C@H](C)NC(=O)[C@H](C)NC(=O)[C@H](CCC(N)=O)NC(=O)[C@H](CCC(N)=O)NC(=O)[C@H](CCCCN)NC(=O)[C@H](CCC(=O)O)NC(=O)[C@H](CCCCN)NC(=O)[C@H](CCC(=O)O)NC(=O)[C@H](CCC(N)=O)NC(=O)[C@H](CCCCN)NC(=O)[C@H](CCC(=O)O)NC(=O)[C@@H](NC(=O)[C@H](CCC(=O)O)NC(=O)[C@@H](NC(=O)[C@H](CCSC)NC(=O)[C@H](CCCCN)NC(=O)[C@H](CCCNC(=N)N)NC(=O)[C@H](CC(C)C)NC(=O)[C@H](CC(C)C)NC(=O)CNC(=O)[C@@H](NC(=O)[C@@H]1CCCN1C(=O)[C@@H](NC(=O)[C@H](CC(=O)O)NC(=O)[C@H](CC(C)C)NC(=O)[C@H](CO)NC(=O)[C@H](CC(C)C)NC(=O)[C@@H](NC(=O)[C@@H](NC(=O)CNC(=O)[C@@H]1CCC(=O)N1)[C@@H](C)CC)C(C)C)C(C)C)[C@@H](C)CC)[C@@H](C)CC)[C@@H](C)CC)[C@@H](C)O)C(N)=O` [compound 153] are 97% and 7%.

As usually defined, the EC50 is the concentration at which the effect is half-maximal. A higher EC50 goes with a less potent agent. One may read the Emax as the maximal effect, on the per cent scale that the assay sets.

(Values after patent US6936585B2, “Corticotropin releasing factor 2 receptor agonists” (priority 2002, dated 2005).)
